The numbers were not newly measured in US9149465B2, “Isoxazolines as inhibitors of fatty acid amide hydrolase” (Infinity Pharmaceuticals, Inc., priority 2009, dated 2015), which cites them from elsewhere.

By UniProt entry, the sequences of proteins in these tests, tags left out. Residues count along the entry.
UniProt P97612, 30-579 limits assumed: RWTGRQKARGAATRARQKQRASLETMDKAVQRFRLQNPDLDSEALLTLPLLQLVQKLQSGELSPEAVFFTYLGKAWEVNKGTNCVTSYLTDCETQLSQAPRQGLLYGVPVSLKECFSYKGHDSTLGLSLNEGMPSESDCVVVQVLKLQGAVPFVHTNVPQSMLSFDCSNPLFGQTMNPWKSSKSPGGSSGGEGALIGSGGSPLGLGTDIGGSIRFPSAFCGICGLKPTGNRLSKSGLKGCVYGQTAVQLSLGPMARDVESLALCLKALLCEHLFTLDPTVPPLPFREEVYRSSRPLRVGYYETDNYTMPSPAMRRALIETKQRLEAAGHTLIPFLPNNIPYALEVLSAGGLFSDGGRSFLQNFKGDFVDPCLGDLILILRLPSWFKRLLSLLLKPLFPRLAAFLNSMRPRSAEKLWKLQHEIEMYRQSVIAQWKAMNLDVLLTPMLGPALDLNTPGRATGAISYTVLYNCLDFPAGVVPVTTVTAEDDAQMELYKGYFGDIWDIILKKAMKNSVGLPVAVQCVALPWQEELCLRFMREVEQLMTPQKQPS

Structures are written as SMILES.

The series concerns the target rat FAAH protein (Rattus norvegicus, UniProt P97612). The note with it: Bracey et al., Science (2002); cited from earlier work.

As to `CCCCC/C=C\C/C=C\C/C=C\C/C=C\CCCCOP(=O)(F)OOC` (stereo not shown), the “covalent binding to FAAH in crystal structure” value is given as “covalently bound to the side chain of Ser-241”.
